“And” between values parts separate entries of the source, which are not always exact repeats. Equal values may be shown once. The list shows a part of the results, in another mix than the full data. Inconclusive results are not listed. The source made the active and inactive calls. Unless noted, calls follow the shape of the full dose curve.
Experiments:
[1] = biological target: Glucocorticoid receptor (Homo sapiens) (UniProt P04150); experiment: qHTS assay for small molecule antagonists of glucocorticoid receptor signaling (AID 588533; active = well fitted inhibition curve with a large enough effect in the signal ratio, with a control signal flat, not every such curve was filed as active; the % refers to the signal ratio;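 also: cells stimulated with 2 nM dexamethasone as agonist; % is scaled to controls: 0 for no effect and ±100 for the full control effect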); conditions: HeLa MMTV-bla, GRE beta-lactamase ratio, antagonist mode, 18 h; at 76.8 µM (top of the series)
[2] = biological target: Peroxisome proliferator-activated receptor delta (Homo sapiens) (UniProt Q03181); experiment: qHTS assay for small molecule antagonists of peroxisome proliferator-activated receptor delta signaling (AID 588535; active = well fitted inhibition curve with a large enough effect in the signal ratio, with a control signal flat, not every such curve was filed as active; the % refers to the signal ratio); conditions: HEK293T PPARd-UAS-bla, beta-lactamase FRET ratio, 18 h; at 76.7 µM (top of the series)
[3] = biological target: Vitamin D3 receptor (Homo sapiens) (UniProt P11473); experiment: qHTS assay for small molecule antagonists of vitamin D receptor signaling (AID 588541); conditions: HEK293T VDR-UAS-bla, beta-lactamase ratio, antagonist mode; at 76.7 µM (top of the series);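 also: receptor activated by calcitriol during compound treatment; % is scaled to controls: 0 for no effect and ±100 for the full control effect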
Summary of the method: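 Antagonist-mode beta-lactamase reporter assay: HEK293T VDR-UAS-bla cells were exposed to titrated compound alongside 1-alpha,25-dihydroxyvitamin D3 at 3 nM final for 16 h. Values were normalized to the 50 nM agonist control and DMSO basal, with IC50 and efficacy from Hill equation fits.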

Amino acid sequences for entries named in this document (tags omitted).
UniProt Q03181, whole entry: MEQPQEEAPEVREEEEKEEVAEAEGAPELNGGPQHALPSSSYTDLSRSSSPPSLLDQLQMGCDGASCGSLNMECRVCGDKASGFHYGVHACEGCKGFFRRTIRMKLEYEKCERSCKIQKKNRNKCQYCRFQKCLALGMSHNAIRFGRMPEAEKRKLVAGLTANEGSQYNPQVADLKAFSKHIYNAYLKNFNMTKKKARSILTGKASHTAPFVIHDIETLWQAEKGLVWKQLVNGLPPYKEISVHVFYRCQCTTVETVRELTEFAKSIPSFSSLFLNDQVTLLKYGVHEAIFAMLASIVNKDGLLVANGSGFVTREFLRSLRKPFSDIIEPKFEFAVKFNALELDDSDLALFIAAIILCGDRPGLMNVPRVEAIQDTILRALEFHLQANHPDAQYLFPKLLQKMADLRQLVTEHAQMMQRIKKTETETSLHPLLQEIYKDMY
UniProt P10828, whole entry: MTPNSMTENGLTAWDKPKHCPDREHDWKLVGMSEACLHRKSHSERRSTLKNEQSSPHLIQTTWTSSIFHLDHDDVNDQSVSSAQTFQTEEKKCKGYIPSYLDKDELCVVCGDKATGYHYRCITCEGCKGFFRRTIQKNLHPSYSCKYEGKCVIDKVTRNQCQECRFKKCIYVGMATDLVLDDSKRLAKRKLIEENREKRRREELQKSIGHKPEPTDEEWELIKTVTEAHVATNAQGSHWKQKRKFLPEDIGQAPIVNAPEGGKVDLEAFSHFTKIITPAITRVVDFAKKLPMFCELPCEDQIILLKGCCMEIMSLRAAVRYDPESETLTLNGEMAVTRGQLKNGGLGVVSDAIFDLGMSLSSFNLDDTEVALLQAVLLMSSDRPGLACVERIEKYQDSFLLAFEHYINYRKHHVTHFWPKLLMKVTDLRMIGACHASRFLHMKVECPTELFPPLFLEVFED

[4] = biological target: Vitamin D3 receptor (Homo sapiens) (UniProt P11473); experiment: qHTS assay for small molecule agonists of vitamin D receptor signaling (AID 588543); conditions: HEK293T VDR-UAS-bla, beta-lactamase ratio, 16 h; at 76.8 µM (top of the series);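 also: 0% = DMSO basal and 100% = reference agonist control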
Summary of the method: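 β-lactamase reporter, VDR-UAS-bla HEK293T, agonist mode. Cells plated 5 h at 37 °C, compound titration 16 h at 37 °C, CCF4 dye 2 h RT, ratio 460/530 nm. Hill fit → EC50, efficacy vs 50 nM 1α,25-(OH)2D3.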

[5] = biological target: Thyroid hormone receptor beta (Homo sapiens) (UniProt P10828); experiment: qHTS assay for small molecule agonists of thyroid hormone receptor beta signaling (AID 588545); conditions: TR-UAS-bla GripTite HEK 293, beta-lactamase ratio, agonist mode, 18 h, percent of T3 response, DMSO as zero; at 76.7 µM (top of the series);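 also: 0% = DMSO only and 100% = 10 nM T3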
Summary of the method: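 Efficacy and EC50 values derive from Hill fits of qHTS titration data, normalized to 10 nM T3 and DMSO-only wells. HEK 293 reporter cells were stimulated for 18 hrs at 37 C, with beta-lactamase activity measured by CCF4 fluorescence.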

[6] = biological target: Retinoic acid receptor RXR-alpha (Homo sapiens) (UniProt P19793); experiment: qHTS assay for small molecule antagonists of retinoid X receptor alpha signaling (AID 588546; active = well fitted inhibition curve with a large enough effect in the signal ratio, with a control signal flat, not every such curve was filed as active; the % refers to the signal ratio;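 also: cells stimulated with 9-cis-retinoic acid as agonist; % is scaled to controls: 0 for no effect and ±100 for the full control effect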); conditions: HEK293T RXRa-UAS-bla, beta-lactamase ratio, antagonist mode
Summary of the method: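 Beta-lactamase reporter inhibition, read as CCF4 fluorescence ratio (ex 405, em 460/530 nm) after 2 h at RT. HEK293T UAS-bla cells, 2500/well, were stimulated with 9-cis-RA at 500 or 100 nM final alongside test compound for 18 h at 37 C.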

[7] = Cell Viability - LYMP2-024 (AID 988; active = well fitted cell-killing curve with a large enough effect;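 also: plate controls were DMSO only for no effect and 92 µM tetraoctylammonium bromide for full effect; nearly all actives have a fitted effect of over 60% in size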); conditions: LYMP2-024 lymphoblastoid cell viability; at 92.2 µM (top of the series)
Summary of the method: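 Steps: seed 2500 cells/well, 5 hr 37 C; add compound, 24 hr 37 C; add CellTiter-Glo, 30 min room temperature; read luminescence. AC50 derived by Hill modelling of concentration-dependent ATP loss.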

[8] = Cell Viability - LYMP2-026 (AID 989; active = well fitted cell-killing curve with a large enough effect;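 also: cells exposed to compound for 24 h at 37 °C; % is scaled to controls: 0 for no effect and ±100 for the full control effect; nearly all actives have a fitted effect of over 50% in size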); conditions: LYMP2-026 lymphoblastoid cell viability, qHTS; at 92.2 µM (top of the series)
Summary of the method: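 Luminescent ATP signal (CellTiter-Glo, 30 min room temperature) measures viable lymphoblastoid cells after 24 hr compound treatment at 37 C. Decreased ATP reflects acute toxicity; AC50 values come from Hill-equation modeling.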

[9] = Cell Viability - LYMP1-002 - Assay at 24 hr (AID 993; active = well fitted cell-killing curve with a large enough effect; also: % is scaled to controls: 0 for no effect and ±100 for the full control effect); conditions: LYMP1-002 lymphoblastoid cells viability; at 92.2 µM (top of the series)
Summary of the method: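 Cells plated 2500/well, 5 hr 37 C; compounds added, 24 hr 37 C; CellTiter-Glo added, 30 min RT; luminescence read. Tetraoctylammonium bromide positive control. Hill-equation AC50.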

[10] = Cell Viability - LYMP1-002 - Assay at 40 hr (AID 994; active = well fitted cell-killing curve with a large enough effect;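 also: 0% = DMSO only and full inhibition = 92 µM tetraoctylammonium bromide; nearly all actives have a fitted effect of over 60% in size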); conditions: LYMP1-002 lymphoblastoid cell viability; at 92.2 µM (top of the series)
Summary of the method: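 Luminescent ATP signal served as the viability readout, with decreases taken as toxicity. Cells were treated with compounds across a concentration range for 40 hours at 37 C, and AC50 values came from standard Hill modeling.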

[11] = qHTS Assay for Identification of Small Molecule Inducers of Hypoxia Response (AID 2120; active = well fitted curve in the direction sought with a large enough effect in the signal ratio, with a control signal flat, not every such curve was filed as active; the % refers to the signal ratio; also: 0% is about no effect); conditions: hypoxia response reporter cells, beta-lactamase ratio readout; at 104 µM (top of the series)
Summary of the method: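 ME-180 HRE-bla cells plated in Opti-MEM/0.5% dialyzed FBS, rested 4-5 h, then dosed with compound titrations by pin tool. After 17 h at 37 degrees C, CCF4 dye loaded 2.5 h at RT; 460/530 nm ratio gave %Activity and AC50.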

[12] = biological target: Bile acid receptor (Homo sapiens) (UniProt Q96RI1); experiment: qHTS assay for small molecule antagonists of farnesoid X receptor signaling (AID 588526); conditions: HEK293T FXR-UAS-bla, beta-lactamase ratio, antagonist mode; at 76.7 µM (top of the series); also: % is scaled to controls: 0 for no effect and ±100 for the full control effect
[13] = biological target: Bile acid receptor (Homo sapiens) (UniProt Q96RI1); experiment: qHTS assay for small molecule agonists of farnesoid X receptor signaling (AID 588527); conditions: HEK293T FXR-UAS-bla, beta-lactamase ratio, 16 h; hits give high values;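 also: 0% = vehicle basal and 100% = reference agonist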
[14] = biological target: Peroxisome proliferator-activated receptor delta (Homo sapiens) (UniProt Q03181); experiment: qHTS assay for small molecule agonists of peroxisome proliferator-activated receptor delta signaling (AID 588534); conditions: HEK293T PPARdelta-UAS-bla, beta-lactamase ratio, 18 h; at 76.7 µM (top of the series);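 also: 0% = DMSO basal wells and 100% = positive control agonist at 10 µM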
[15] = biological target: Peroxisome proliferator-activated receptor gamma (Homo sapiens) (UniProt P37231); experiment: qHTS assay for small molecule agonists of peroxisome proliferator-activated receptor gamma signaling (AID 588536; active = well fitted curve in the direction sought with a large enough effect in the signal ratio, with a control signal flat, not every such curve was filed as active; the % refers to the signal ratio;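 also: 0% = DMSO basal wells and 100% = rosiglitazone at 2 µM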); conditions: HEK293 PPARg-UAS-bla, beta-lactamase ratio, 16 h, percent of rosiglitazone response, DMSO as zero; at 76.7 µM (top of the series)
Summary of the method: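 GeneBLAzer PPAR-gamma-UAS-bla HEK293 cells in 1% charcoal/dextran-treated FBS medium were treated 16 h at 37 C with compounds. Beta-lactamase activity was read by CCF4 ratio (460/530 nm). Response was normalized to 2 uM rosiglitazone (100%) and DMSO, then Hill-fitted for EC50 and efficacy.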

[16] = biological target: Peroxisome proliferator-activated receptor gamma (Homo sapiens) (UniProt P37231); experiment: qHTS assay for small molecule antagonists of peroxisome proliferator-activated receptor gamma signaling (AID 588537; active = well fitted inhibition curve with a large enough effect in the signal ratio, with a control signal flat, not every such curve was filed as active; the % refers to the signal ratio;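 also: reporter cells co-stimulated with 50 nM rosiglitazone agonist during compound treatment; % of control where 0% means no effect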); conditions: HEK293 PPARg-UAS-bla, beta-lactamase ratio, antagonist mode; at 76.8 µM (top of the series)
Summary of the method: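 Antagonist mode, beta-lactamase reporter in HEK293; charcoal/dextran FBS 1%; 3000 cells/well, 37 C 6-6.5 h; cpd titration + rosiglitazone 50 nM final, 16 h 37 C; CCF4, 2 h RT; 460/530 nm; Hill fit → IC50, efficacy.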

[17] = biological target: Retinoic acid receptor RXR-alpha (Homo sapiens) (UniProt P19793); experiment: qHTS assay for small molecule agonists of retinoid X receptor alpha signaling (AID 588544); conditions: HEK293T RXRa-UAS-bla, beta-lactamase reporter, 18 h; at 76.7 µM (top of the series);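 also: 0% = DMSO basal wells and 100% = reference agonist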
[18] = biological target: Estrogen receptor (Homo sapiens) (UniProt P03372); experiment: qHTS assay for small molecule antagonists of estrogen receptor alpha signaling (AID 588513; active = well fitted curve in the direction sought with a large enough effect in the signal ratio, with a control signal flat, not every such curve was filed as active; the % refers to the signal ratio; also: % is scaled to controls: 0 for no effect and ±100 for the full control effect); conditions: ER-alpha-UAS-bla HEK293, beta-lactamase ratio, antagonist mode; at 76.9 µM (top of the series)
[19] = biological target: Estrogen receptor (Homo sapiens) (UniProt P03372); experiment: qHTS assay for small molecule agonists of estrogen receptor alpha signaling (AID 588514); conditions: ER-alpha-UAS-bla HEK293, beta-lactamase ratio, 18 h, percent of full estradiol response, vehicle zero; at 76.8 µM (top of the series);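 also: 0% = vehicle only and 100% = reference agonist; nearly all actives have a fitted effect of over 70% in size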
[20] = biological target: Glucocorticoid receptor (Homo sapiens) (UniProt P04150); experiment: qHTS assay for small molecule agonists of glucocorticoid receptor signaling (AID 588532; active = well fitted curve in the direction sought with a large enough effect in the signal ratio, with a control signal flat; the % refers to the signal ratio;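 also: 100% = dexamethasone at 0.1 µM and 0% = DMSO only wells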); conditions: HeLa MMTV-bla, beta-lactamase ratio, agonist, 18 h; hits give high values

O=[N+]([O-])c1ccccc1[N+](=O)[O-]
inactive: activity change, negative = inhibition [1] -0.496% | activity change, negative = inhibition [2] -14% | activity change, negative = inhibition [3] -1.44% | activation [4] -3.41% | activation [5] -9.65% | max response [6] -8.12%

CCOP(=O)(Cl)Cl
inactive: activity change, negative = cytotoxicity [7] -6.09% | activity change, negative = cytotoxic [8] -7.39% | activity change, negative = cytotoxicity [9] 0.692% | viability change, negative = cytotoxic [10] -1.39% | activation [11] 1.11% | activity change, negative = inhibition [12] 2.61% and -3.63% | activation [13] 0.86% and -2.54% | activation [14] 9.85% and 1.7% | activity change, negative = inhibition [2] -18.8% and -1.44% | activation [15] -1.03% and -0.252% | activity, negative = inhibition [16] -13.6% and 10.1% | activation [17] -5.07% and 13.9% | activation [5] -0.421% and -2.36% | max response [6] -9.82%

ClCCOP(OCCCl)OCCCl
inactive: activity change, negative = cytotoxicity [7] -8.84% | activity change, negative = cytotoxic [8] 0.744% | activity change, negative = cytotoxicity [9] 1.61% | viability change, negative = cytotoxic [10] -0.262% | activation [11] 0.609% | activity, negative = inhibition [18] 21.1% | activation [19] -3.8% | activation [20] -3.43% | activity change, negative = inhibition [1] -23.6% | activation [14] 16.4% | activity change, negative = inhibition [2] -15.4% | activation [15] 3.06% | activity, negative = inhibition [16] -4.04% | activity change, negative = inhibition [3] -0.313% | activation [4] 2.33% | activation [17] -3.03% | activation [5] -21.3% | max response [6] -2.68%

From PubChem BioAssay (NCATS)
